Measurements taken from patent publication US9029359B2, “Heteroaryl Btk inhibitors” (Biogen Idec MA, Inc., priority 2009, dated 2015).

Chains of the proteins cited; added tags and fusions are not shown.
UniProt Q06187, whole entry: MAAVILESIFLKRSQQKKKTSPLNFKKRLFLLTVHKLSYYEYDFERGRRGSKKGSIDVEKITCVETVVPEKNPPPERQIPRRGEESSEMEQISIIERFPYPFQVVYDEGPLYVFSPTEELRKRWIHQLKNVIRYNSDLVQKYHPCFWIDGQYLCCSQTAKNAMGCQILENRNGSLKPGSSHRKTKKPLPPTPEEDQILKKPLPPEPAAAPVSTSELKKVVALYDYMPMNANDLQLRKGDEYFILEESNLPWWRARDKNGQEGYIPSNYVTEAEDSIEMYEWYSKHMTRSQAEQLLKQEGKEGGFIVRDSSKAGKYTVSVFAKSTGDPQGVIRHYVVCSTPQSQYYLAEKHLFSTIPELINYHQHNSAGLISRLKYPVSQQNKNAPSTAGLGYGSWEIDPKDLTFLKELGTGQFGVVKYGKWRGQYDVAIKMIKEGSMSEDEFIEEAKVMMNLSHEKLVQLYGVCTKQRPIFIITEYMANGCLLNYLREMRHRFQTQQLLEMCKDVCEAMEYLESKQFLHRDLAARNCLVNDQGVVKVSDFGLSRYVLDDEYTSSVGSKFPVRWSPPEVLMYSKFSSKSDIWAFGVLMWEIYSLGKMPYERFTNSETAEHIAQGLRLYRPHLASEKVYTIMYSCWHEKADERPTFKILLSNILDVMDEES

Molecular target: BTK (Homo sapiens, UniProt Q06187)
Assay: In vitro BTK kinase assay: BTK-POLYGAT-LS ASSAY
Settings: read-out: IC50 (10 uM ATP), ATP 10 uM

IC50: < 100 nM
Structure (SMILES): C[C@H]1C[C@@H](NC(=O)[C@H](Nc2cc(F)cc(Cl)c2)C2CC2)CN(c2ncnc3[nH]ncc23)C1
